Where two headings read alike, the source gives them in different places.
Legend:
human GLP-1 receptor = molecular target: T1, human GLP-1 receptor (Homo sapiens, UniProt P43220); experiment: cAMP response (HTRF) of HEK-293 cells stably expressing human GLP-1 receptor; type: cell-based; details: read-out: EC50 hGLP-1R
T1 construct: expressed in transfected cells; host or cells: HEK-293

Amino acid sequences for entries named in this document (tags omitted). Residues count along the entry.
UniProt P43220, 24-463: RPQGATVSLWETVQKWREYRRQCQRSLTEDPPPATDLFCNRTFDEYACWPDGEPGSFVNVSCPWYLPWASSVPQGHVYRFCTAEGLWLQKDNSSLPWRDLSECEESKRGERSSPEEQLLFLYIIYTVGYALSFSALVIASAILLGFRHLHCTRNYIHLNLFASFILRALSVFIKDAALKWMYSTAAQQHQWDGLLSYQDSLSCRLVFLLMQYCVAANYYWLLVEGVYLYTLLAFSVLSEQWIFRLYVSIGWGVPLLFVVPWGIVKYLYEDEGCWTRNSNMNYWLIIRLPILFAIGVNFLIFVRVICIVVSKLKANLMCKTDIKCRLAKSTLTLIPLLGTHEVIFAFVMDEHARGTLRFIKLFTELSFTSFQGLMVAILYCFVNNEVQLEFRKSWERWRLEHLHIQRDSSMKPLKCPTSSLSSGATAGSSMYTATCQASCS
UniProt P47871, 26-477: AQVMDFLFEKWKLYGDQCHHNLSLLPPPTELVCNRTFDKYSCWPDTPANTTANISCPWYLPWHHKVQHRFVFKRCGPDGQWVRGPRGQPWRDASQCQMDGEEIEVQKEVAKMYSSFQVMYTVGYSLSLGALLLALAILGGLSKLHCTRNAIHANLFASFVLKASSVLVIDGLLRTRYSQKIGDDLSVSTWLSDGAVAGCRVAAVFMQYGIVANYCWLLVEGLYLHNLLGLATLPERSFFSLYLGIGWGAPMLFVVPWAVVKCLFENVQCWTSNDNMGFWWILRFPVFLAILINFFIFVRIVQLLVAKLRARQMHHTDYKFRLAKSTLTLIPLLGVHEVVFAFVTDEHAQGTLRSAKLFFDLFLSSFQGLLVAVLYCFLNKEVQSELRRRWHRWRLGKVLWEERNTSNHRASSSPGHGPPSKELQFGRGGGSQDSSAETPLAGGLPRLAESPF

human glucagon receptor = molecular target: T2, human glucagon receptor (Homo sapiens, UniProt P47871); experiment: cAMP response (HTRF) of HEK-293 cells stably expressing human glucagon receptor; type: cell-based; details: read-out: EC50 hGlucagon-R
T2 construct: expressed in transfected cells; host or cells: HEK-293

[1] = Table 8, comparison testing of position 14

EC50 (human GLP-1 receptor; [1]) | EC50 (human glucagon receptor; [1]) | Compound | EC50 (human GLP-1 receptor; Table 5, cAMP, HEK-293) | EC50 (human glucagon receptor; Table 5, cAMP, HEK-293)
159 pM | 1290 pM | CC[C@H](C)[C@H](NC(=O)[C@H](Cc1ccccc1)NC(=O)[C@H](CC(=O)O)NC(=O)[C@H](CCC(N)=O)NC(=O)[C@H](C)NC(=O)[C@H](CCCNC(=N)N)NC(=O)[C@H](CCCNC(=N)N)NC(=O)[C@H](CO)NC(=O)[C@H](CCC(=O)O)NC(=O)[C@H](CCCCNC(C)=O)NC(=O)[C@H](CCC(N)=O)NC(=O)[C@H](CCCCN)NC(=O)[C@H](CO)NC(=O)[C@H](CC(C)C)NC(=O)[C@H](CC(=O)O)NC(=O)[C@H](CO)NC(=O)[C@@H](NC(=O)[C@H](Cc1ccccc1)NC(=O)[C@@H](NC(=O)CNC(=O)[C@H](CCC(N)=O)NC(=O)[C@@H](CO)NC(=O)[C@@H](N)Cc1c[nH]cn1)[C@@H](C)O)[C@@H](C)O)C(=O)N[C@@H](CCC(=O)O)C(=O)N[C@@H](Cc1c[nH]c2ccccc12)C(=O)N[C@@H](CC(C)C)C(=O)N[C@@H](CCCCN)C(=O)N[C@@H](C)C(=O)NCC(=O)NCC(=O)N1CCC[C@H]1C(=O)N[C@@H](CO)C(=O)N[C@@H](CO)C(=O)NCC(=O)N[C@@H](C)C(=O)N1CCC[C@H]1C(=O)N1CCC[C@H]1C(=O)N1CCC[C@H]1C(=O)N[C@@H](CO)C(N)=O [compound 194] | – | –
– | – | CCCCCCCCCCCCCCCCCC(=O)N[C@@H](CCC(=O)NCCCC[C@H](NC(=O)[C@H](CCC(N)=O)NC(=O)[C@H](CCCCN)NC(=O)[C@H](CO)NC(=O)[C@H](CC(C)C)NC(=O)[C@H](CC(=O)O)NC(=O)[C@H](CO)NC(=O)[C@@H](NC(=O)[C@H](Cc1ccccc1)NC(=O)[C@@H](NC(=O)CNC(=O)[C@H](CCC(N)=O)NC(=O)[C@@H](CO)NC(=O)[C@@H](N)Cc1c[nH]cn1)[C@@H](C)O)[C@@H](C)O)C(=O)N[C@@H](CC(=O)O)C(=O)N[C@@H](CO)C(=O)N[C@@H](CCCCN)C(=O)N[C@@H](CCCNC(=N)N)C(=O)N[C@@H](C)C(=O)NC(C)(C)C(=O)N[C@@H](CC(=O)O)C(=O)N[C@@H](Cc1ccccc1)C(=O)N[C@H](C(=O)N[C@@H](CCC(=O)O)C(=O)N[C@@H](Cc1c[nH]c2ccccc12)C(=O)N[C@@H](CC(C)C)C(=O)N[C@@H](CCCCN)C(=O)N[C@@H](C)C(=O)NCC(=O)NCC(=O)N1CCC[C@H]1C(=O)N[C@@H](CO)C(=O)N[C@@H](CO)C(=O)NCC(=O)N[C@@H](C)C(=O)N1CCC[C@H]1C(=O)N1CCC[C@H]1C(=O)N1CCC[C@H]1C(=O)N[C@@H](CO)C(N)=O)[C@@H](C)CC)C(=O)O [compound 196] | 7.8 pM | 1.8 pM
– | – | CCCCCCCCCCCCCCCCCC(=O)N[C@@H](CCC(=O)NCCCC[C@H](NC(=O)[C@H](CCC(N)=O)NC(=O)[C@H](CCCCN)NC(=O)[C@H](CO)NC(=O)[C@H](CC(C)C)NC(=O)[C@H](CC(=O)O)NC(=O)[C@H](CO)NC(=O)[C@@H](NC(=O)[C@H](Cc1ccccc1)NC(=O)[C@@H](NC(=O)CNC(=O)[C@H](CCC(N)=O)NC(=O)C(C)(C)NC(=O)[C@@H](N)Cc1c[nH]cn1)[C@@H](C)O)[C@@H](C)O)C(=O)N[C@@H](CC(=O)O)C(=O)N[C@@H](CO)C(=O)N[C@@H](CCCNC(=N)N)C(=O)N[C@@H](CCCNC(=N)N)C(=O)N[C@@H](C)C(=O)N[C@@H](CCC(N)=O)C(=O)N[C@@H](CC(C)C)C(=O)N[C@@H](Cc1ccccc1)C(=O)N[C@H](C(=O)N[C@@H](CCC(=O)O)C(=O)N[C@@H](Cc1c[nH]c2ccccc12)C(=O)N[C@@H](CC(C)C)C(=O)N[C@@H](CCCCN)C(=O)N[C@@H](C)C(=O)NCC(=O)NCC(=O)N1CCC[C@H]1C(=O)N[C@@H](CO)C(=O)N[C@@H](CO)C(=O)NCC(=O)N[C@@H](C)C(=O)N1CCC[C@H]1C(=O)N1CCC[C@H]1C(=O)N1CCC[C@H]1C(=O)N[C@@H](CO)C(N)=O)[C@@H](C)CC)C(=O)O [compound 198] | 8.2 pM | 2.4 pM
– | – | CCCCCCCCCCCCCCCCCC(=O)N[C@@H](CCC(=O)NCCCC[C@H](NC(=O)[C@H](CCC(N)=O)NC(=O)[C@H](CCCCN)NC(=O)[C@H](CO)NC(=O)[C@H](CC(C)C)NC(=O)[C@H](CC(=O)O)NC(=O)[C@H](CO)NC(=O)[C@@H](NC(=O)[C@H](Cc1ccccc1)NC(=O)[C@@H](NC(=O)CNC(=O)[C@H](CCC(N)=O)NC(=O)C(C)(C)NC(=O)[C@@H](N)Cc1c[nH]cn1)[C@@H](C)O)[C@@H](C)O)C(=O)N[C@@H](CC(=O)O)C(=O)N[C@@H](CCC(=O)O)C(=O)N[C@@H](CCC(N)=O)C(=O)N[C@@H](CCCNC(=N)N)C(=O)N[C@@H](C)C(=O)N[C@@H](CCCCN)C(=O)N[C@@H](CC(=O)O)C(=O)N[C@@H](Cc1ccccc1)C(=O)N[C@H](C(=O)N[C@@H](CCC(=O)O)C(=O)N[C@@H](Cc1c[nH]c2ccccc12)C(=O)N[C@@H](CC(C)C)C(=O)N[C@@H](CCCCN)C(=O)N[C@@H](C)C(=O)N[C@H](C)C(=O)NCC(=O)N1CCC[C@H]1C(=O)N[C@@H](CO)C(=O)N[C@@H](CO)C(=O)NCC(=O)N[C@@H](C)C(=O)N1CCC[C@H]1C(=O)N1CCC[C@H]1C(=O)N1CCC[C@H]1C(=O)N[C@@H](CO)C(N)=O)[C@@H](C)CC)C(=O)O [compound 199] | 10.1 pM | 7.2 pM
– | – | CCCCCCCCCCCCCCCCCC(=O)N[C@@H](CCC(=O)NCCCC[C@H](NC(=O)[C@H](CCC(N)=O)NC(=O)[C@H](CCCCN)NC(=O)[C@H](CO)NC(=O)[C@H](CC(C)C)NC(=O)[C@H](CC(=O)O)NC(=O)[C@H](CO)NC(=O)[C@@H](NC(=O)[C@H](Cc1ccccc1)NC(=O)[C@@H](NC(=O)CNC(=O)[C@H](CCC(N)=O)NC(=O)C(C)(C)NC(=O)[C@@H](N)Cc1c[nH]cn1)[C@@H](C)O)[C@@H](C)O)C(=O)N[C@@H](CC(=O)O)C(=O)N[C@@H](CCC(=O)O)C(=O)N[C@@H](CCC(N)=O)C(=O)N[C@@H](CCCNC(=N)N)C(=O)N[C@@H](C)C(=O)N[C@@H](CCCCN)C(=O)N[C@@H](CC(C)C)C(=O)N[C@@H](Cc1ccccc1)C(=O)N[C@H](C(=O)N[C@@H](CCC(=O)O)C(=O)N[C@@H](Cc1c[nH]c2ccccc12)C(=O)N[C@@H](CC(C)C)C(=O)N[C@@H](CCCCN)C(=O)N[C@@H](C)C(=O)N[C@H](C)C(=O)NCC(=O)N1CCC[C@H]1C(=O)N[C@@H](CO)C(=O)N[C@@H](CO)C(=O)NCC(=O)N[C@@H](C)C(=O)N1CCC[C@H]1C(=O)N1CCC[C@H]1C(=O)N1CCC[C@H]1C(=O)N[C@@H](CO)C(N)=O)[C@@H](C)CC)C(=O)O [compound 200] | 4.6 pM | 4.4 pM
– | – | CCCCCCCCCCCCCCCCCCCCC(=O)N[C@@H](CCC(=O)NCCCC[C@H](NC(=O)[C@H](CCC(N)=O)NC(=O)[C@H](CCCCN)NC(=O)[C@H](CO)NC(=O)[C@H](CC(C)C)NC(=O)[C@H](CC(=O)O)NC(=O)[C@H](CO)NC(=O)[C@@H](NC(=O)[C@H](Cc1ccccc1)NC(=O)[C@@H](NC(=O)CNC(=O)[C@H](CCC(N)=O)NC(=O)C(C)(C)NC(=O)[C@@H](N)Cc1c[nH]cn1)[C@@H](C)O)[C@@H](C)O)C(=O)N[C@@H](CC(=O)O)C(=O)N[C@@H](CCC(=O)O)C(=O)N[C@@H](CCC(N)=O)C(=O)N[C@@H](C)C(=O)N[C@@H](C)C(=O)N[C@@H](CCCCN)C(=O)N[C@@H](CC(C)C)C(=O)N[C@@H](Cc1ccccc1)C(=O)N[C@H](C(=O)N[C@@H](CCC(=O)O)C(=O)N[C@@H](Cc1c[nH]c2ccccc12)C(=O)N[C@@H](CC(C)C)C(=O)N[C@@H](CCCCN)C(=O)N[C@@H](C)C(=O)N[C@H](C)C(=O)NCC(=O)N1CCC[C@H]1C(=O)N[C@@H](CO)C(=O)N[C@@H](CO)C(=O)NCC(=O)N[C@@H](C)C(=O)N1CCC[C@H]1C(=O)N1CCC[C@H]1C(=O)N1CCC[C@H]1C(=O)N[C@@H](CO)C(N)=O)[C@@H](C)CC)C(=O)O [compound 201] | 22.7 pM | 29.6 pM
– | – | CCCCCCCCCCCCCCCCCCCCC(=O)N[C@@H](CCC(=O)NCCCC[C@H](NC(=O)[C@H](CCC(N)=O)NC(=O)[C@H](CCCCN)NC(=O)[C@H](CO)NC(=O)[C@H](CC(C)C)NC(=O)[C@H](CC(=O)O)NC(=O)[C@H](CO)NC(=O)[C@@H](NC(=O)[C@H](Cc1ccccc1)NC(=O)[C@@H](NC(=O)CNC(=O)[C@H](CCC(N)=O)NC(=O)C(C)(C)NC(=O)[C@@H](N)Cc1c[nH]cn1)[C@@H](C)O)[C@@H](C)O)C(=O)N[C@@H](CCC(=O)O)C(=O)N[C@@H](CO)C(=O)N[C@@H](CCCNC(=N)N)C(=O)N[C@@H](C)C(=O)N[C@@H](C)C(=O)N[C@@H](CCC(N)=O)C(=O)N[C@@H](CC(=O)O)C(=O)N[C@@H](Cc1ccccc1)C(=O)N[C@H](C(=O)N[C@@H](CCC(=O)O)C(=O)N[C@@H](Cc1c[nH]c2ccccc12)C(=O)N[C@@H](CC(C)C)C(=O)N[C@@H](CCCCN)C(=O)N[C@@H](C)C(=O)NCC(=O)NCC(=O)N1CCC[C@H]1C(=O)N[C@@H](CO)C(=O)N[C@@H](CO)C(=O)NCC(=O)N[C@@H](C)C(=O)N1CCC[C@H]1C(=O)N1CCC[C@H]1C(=O)N1CCC[C@H]1C(=O)N[C@@H](CO)C(N)=O)[C@@H](C)CC)C(=O)O [compound 202] | 26.2 pM | 6.9 pM
– | – | CCCCCCCCCCCCCCCCCCCCC(=O)N[C@@H](CCC(=O)NCCCC[C@H](NC(=O)[C@H](CCC(N)=O)NC(=O)[C@H](CCCCN)NC(=O)[C@H](CO)NC(=O)[C@H](CC(C)C)NC(=O)[C@H](CC(=O)O)NC(=O)[C@H](CO)NC(=O)[C@@H](NC(=O)[C@H](Cc1ccccc1)NC(=O)[C@@H](NC(=O)CNC(=O)[C@H](CCC(N)=O)NC(=O)C(C)(C)NC(=O)[C@@H](N)Cc1c[nH]cn1)[C@@H](C)O)[C@@H](C)O)C(=O)N[C@@H](CCC(=O)O)C(=O)N[C@@H](CO)C(=O)N[C@@H](CCCNC(=N)N)C(=O)N[C@@H](C)C(=O)N[C@@H](C)C(=O)N[C@@H](CCC(N)=O)C(=O)N[C@@H](CC(C)C)C(=O)N[C@@H](Cc1ccccc1)C(=O)N[C@H](C(=O)N[C@@H](CCC(=O)O)C(=O)N[C@@H](Cc1c[nH]c2ccccc12)C(=O)N[C@@H](CC(C)C)C(=O)N[C@@H](CCCCN)C(=O)N[C@@H](C)C(=O)NCC(=O)NCC(=O)N1CCC[C@H]1C(=O)N[C@@H](CO)C(=O)N[C@@H](CO)C(=O)NCC(=O)N[C@@H](C)C(=O)N1CCC[C@H]1C(=O)N1CCC[C@H]1C(=O)N1CCC[C@H]1C(=O)N[C@@H](CO)C(N)=O)[C@@H](C)CC)C(=O)O [compound 203] | 34.9 pM | 13.1 pM

Source: patent publication US20140100156A1 (SANOFI, priority 2012, published 2014)
